This note sets out measurements from patent publication US20050214316A1 (priority 2003, published 2005).

Marks after values point to notes of the source that are not given here.

In data set [1] the test system is commercial broilers (trials 1 and 2), SPF broilers (trial 3). Put plainly: Immunosuppression trials 1-3: relative proventriculus weight. The conditions noted are these: Trial 2, commercial broilers, Day 14 (7 dpi), mean ± standard deviation, four birds.
Data set [2] has the same test system. As to conditions: in vivo.

On to `O=P1(N(CCCl)CCCl)NCCCO1` (centres unmarked) [CP, Cyclophosphamide monohydrate], for which the Relative proventriculus weight in data set [1] is given as 0.685 ± .023^a % body weight. The “Proventriculus score (severity of proventricular lesions)” value in data set [2] was 1.25^a.
